Among the data in PubChem BioAssay AID893 (National Center for Advancing Translational Sciences (NCATS), 2007) are activity change, negative = inhibition values, retold here.

The list shows a part of the results, in another mix than the full data. Inconclusive results are not listed. Active and inactive are the calls of the source. Calls follow the shape of the dose curve; as a rule, active = well fitted inhibition curve with a large enough effect; inconclusive = small, poorly fitted or top-dose-only effect; inactive = no such curve, though single readings can be large or run the other way.
% is scaled to controls: 0 for no effect and ±100 for the full control effect.

The assay concerns the target 3-hydroxyacyl-CoA dehydrogenase type-2 (Homo sapiens) (UniProt Q99714). The assay can be described thus: qHTS Assay for Inhibitors of HSD17B4, hydroxysteroid (17-beta) dehydrogenase 4.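 Also: the protocol describes HADH2 (HSD17B10) and not the HSD17B4 of the title; nearly all actives have a fitted effect of over 70% in size.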 The conditions noted are these: recombinant HSD17B10, NADH fluorescence kinetic; at 57.1 µM (top of the series). For orientation: Quantitative high-throughput screening tests each substance at several concentrations.
As to `CN(CCCl)CCCl`, the activity change, negative = inhibition is inactive: 10.2%.

In the case of `O=[N+]([O-])C(Cl)(Cl)Cl`, the activity change, negative = inhibition was inactive: 0.648%.
